Amino acid sequences for entries named in this document (tags omitted). Residues count along the entry.
UniProt P21439, 1-1279 isoform P21439-2: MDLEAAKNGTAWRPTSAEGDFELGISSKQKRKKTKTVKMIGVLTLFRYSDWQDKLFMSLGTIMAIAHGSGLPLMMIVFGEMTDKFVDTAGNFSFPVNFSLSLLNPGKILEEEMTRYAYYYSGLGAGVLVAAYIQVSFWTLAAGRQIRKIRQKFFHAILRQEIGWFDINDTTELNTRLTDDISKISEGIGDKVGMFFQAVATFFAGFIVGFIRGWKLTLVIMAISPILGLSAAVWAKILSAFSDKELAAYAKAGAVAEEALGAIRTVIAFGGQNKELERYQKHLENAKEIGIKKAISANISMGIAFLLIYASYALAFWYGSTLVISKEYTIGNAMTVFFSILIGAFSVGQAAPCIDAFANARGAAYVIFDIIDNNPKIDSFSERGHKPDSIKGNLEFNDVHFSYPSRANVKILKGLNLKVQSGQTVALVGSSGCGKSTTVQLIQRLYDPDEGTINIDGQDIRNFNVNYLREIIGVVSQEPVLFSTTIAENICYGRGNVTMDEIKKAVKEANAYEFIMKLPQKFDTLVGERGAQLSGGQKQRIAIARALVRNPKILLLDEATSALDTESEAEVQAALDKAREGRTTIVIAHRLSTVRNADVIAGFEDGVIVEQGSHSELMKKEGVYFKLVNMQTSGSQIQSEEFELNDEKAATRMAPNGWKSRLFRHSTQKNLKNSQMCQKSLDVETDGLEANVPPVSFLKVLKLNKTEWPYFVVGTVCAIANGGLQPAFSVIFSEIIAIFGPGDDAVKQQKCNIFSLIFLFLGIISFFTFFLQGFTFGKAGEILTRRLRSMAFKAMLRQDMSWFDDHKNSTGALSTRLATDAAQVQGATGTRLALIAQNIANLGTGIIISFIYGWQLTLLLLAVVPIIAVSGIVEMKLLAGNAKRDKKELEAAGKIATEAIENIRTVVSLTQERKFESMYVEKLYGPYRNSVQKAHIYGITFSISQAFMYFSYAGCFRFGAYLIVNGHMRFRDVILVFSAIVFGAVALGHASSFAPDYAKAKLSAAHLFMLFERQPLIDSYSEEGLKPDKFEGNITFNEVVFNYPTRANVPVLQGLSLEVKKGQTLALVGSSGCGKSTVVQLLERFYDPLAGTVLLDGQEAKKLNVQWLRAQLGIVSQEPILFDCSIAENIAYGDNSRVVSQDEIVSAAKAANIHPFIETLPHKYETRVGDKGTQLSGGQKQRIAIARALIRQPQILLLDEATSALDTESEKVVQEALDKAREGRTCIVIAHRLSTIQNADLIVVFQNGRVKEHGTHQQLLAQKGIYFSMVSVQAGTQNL

According to publication PMC10003010, “A Unique In Vitro Assay to Investigate ABCB4 Transport Function” (International Journal of Molecular Sciences, 2023):

Target: human ABCB4 (Homo sapiens, UniProt P21439)
Assay: Inhibition of ABCB4-mediated digoxin transport, bidirectional assay in Abcb1KO-MDCKII-ABCB4 cells
Type: cell-based
Set-up: expressed in transfected cells; host or cells: Abcb1KO-MDCKII (canine kidney, Abcb1 knockout), lentiviral transduction, single clone
Conditions: digoxin 1 µM probe

NC(=O)N1c2ccccc2C=Cc2ccccc21 [carbamazepine]
Effect on ABCB4-mediated digoxin transport, in words: no effect
